From ChEMBL document CHEMBL5550170, “Discovery of novel benzimidazole derivatives as selective and reversible monoamine oxidase B inhibitors for Parkinson's disease treatment” (Eur J Med Chem, 2024)

What was measured:
PC-12 = assay: Antioxidant activity in H2O2-induced rat PC12 cells assessed as reduction in intracellular ROS level by measuring residual fluorescence intensity at 50 uM preincubated with compound for 24 hrs followed by H2O2 induction and measured after 2 hrs by DCFH-DA staining based flow cytometry analysis (reference value: 26.16%); type: functional; conditions: time 26 hrs
[1] = Clearance in specific pathogen free-Sprague-Dawley rat at 5 mg/kg, iv measured upto 24 hrs; type: ADME, organism-based; conditions: in vivo
[2] = Clearance in specific pathogen free-Sprague-Dawley rat at 15 mg/kg, po measured upto 24 hrs; type: ADME, organism-based; conditions: in vivo
[3] = Half life in specific pathogen free-Sprague-Dawley rat at 5 mg/kg, iv measured upto 24 hrs; type: ADME, organism-based; conditions: in vivo
[4] = Half life in specific pathogen free-Sprague-Dawley rat at 15 mg/kg, po measured upto 24 hrs; type: ADME, organism-based; conditions: in vivo
[5] = Apparent volume of distribution in specific pathogen free-Sprague-Dawley rat at 5 mg/kg, iv measured upto 24 hrs; type: ADME, organism-based; conditions: in vivo
[6] = Apparent volume of distribution in specific pathogen free-Sprague-Dawley rat at 15 mg/kg, po measured upto 24 hrs; type: ADME, organism-based; conditions: in vivo
[7] = AUC (0 to 24 hrs) in specific pathogen free-Sprague-Dawley rat at 5 mg/kg, iv measured upto 24 hrs; type: ADME, organism-based; conditions: in vivo
[8] = AUC (0 to 24 hrs) in specific pathogen free-Sprague-Dawley rat at 15 mg/kg, po measured upto 24 hrs; type: ADME, organism-based; conditions: in vivo
[9] = Acute toxicity in C57BL/6 mouse assessed as mental abnormalities at 200 mg/kg, ip administered every day for 1 week; type: organism-based; conditions: in vivo, 168 h, time 1 weeks
[10] = Acute toxicity in C57BL/6 mouse assessed as physical abnormalities at 200 mg/kg, ip administered every day for 1 week; type: organism-based; conditions: in vivo, 168 h, time 1 weeks

Work on NC(=O)Cc1nc2cc(OCc3ccc(F)cc3)ccc2[nH]1 yielded an Activity (PC-12) of 13.24%, a CL [1] of 10.3 mL/day/kg and a CL [2] of 4.56 mL/day/kg. The t1/2 [3] was 1.16 h, the t1/2 [4] was 1.67 h and the Vz [5] was 1.07 L/kg. The Vz [6] was 1.07 L/kg, the AUC [7] was 11.56569 µg·h/mL and the AUC [8] was 81.9378 µg·h/mL. For the same molecule, the Activity [9] was “Non-Toxic” and the Activity [10] was “Non-Toxic”.
